Laboratory results: patent US6713488B2 (priority 2000, dated 2004)

The chains behind the UniProt entries cited, without tags or fusion partners.
UniProt P35372, whole entry: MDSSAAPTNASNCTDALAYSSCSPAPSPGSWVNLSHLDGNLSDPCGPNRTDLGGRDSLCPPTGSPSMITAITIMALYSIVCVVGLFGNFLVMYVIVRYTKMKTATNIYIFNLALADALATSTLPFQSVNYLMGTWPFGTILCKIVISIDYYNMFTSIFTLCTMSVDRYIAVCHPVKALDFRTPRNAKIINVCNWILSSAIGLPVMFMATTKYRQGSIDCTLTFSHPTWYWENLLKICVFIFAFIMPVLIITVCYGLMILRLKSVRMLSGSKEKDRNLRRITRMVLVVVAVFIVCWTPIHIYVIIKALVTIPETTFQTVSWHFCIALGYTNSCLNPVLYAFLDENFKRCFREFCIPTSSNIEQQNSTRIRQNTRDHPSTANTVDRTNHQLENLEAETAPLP

Columns and labels:
μ opioid receptor = molecular target: T1, μ opioid receptor (Homo sapiens, UniProt P35372); type: binding
T1 construct: FLAG (N); expressed in transfected cells

human MOR [1] = molecular target: T2, human MOR (Homo sapiens, UniProt P35372); type: biochemical
T2 construct: FLAG (N); expressed in transfected cells; host or cells: HEK 293

human MOR [2] = molecular target: T2, human MOR; type: cell-based
human MOR [3] = molecular target: T2, human MOR; type: biochemical; conditions: read-out: IC50 for inhibiting morphine-stimulated 35S-GTPγS binding

Row | Compound | Ki (μ opioid receptor) [pM] | effect on basal 35S-GTPγS binding activity (human MOR [1]) | effect on forskolin stimulated cAMP levels (human MOR [2]) | % inhibition of inverse agonistic effect of C-CAM (human MOR [1]) [%] | % inhibition of inverse agonistic effect of β-CNA (human MOR [1]) [%] | IC50 (human MOR [3]) [pM]
1 | Oc1ccc2c3c1O[C@H]1[C@H](O)CC[C@@]4(O)[C@@H](C2)N(CC2CC2)CC[C@]314 [6α-Naltrexol, 6α-naltrexol] | 530 ± 40 | no significant effect | no effect |  |  | 
2 | Oc1ccc2c3c1O[C@H]1[C@H](O)CC[C@@]4(O)[C@@H](C2)N(CC2CC2)CC[C@]314 [6β-Naltrexol, 6β-naltrexol] | 800 ± 210 | no significant effect | no effect | 91±9 | 68±17 | 18000 ± 1000
